In patent US9623046B2, “Amphiphilic Janus-dendrimers” (The Trustees Of The University Of Pennsylvania, priority 2009, dated 2017):

settings: isolated salt

| Substance | solubility in common solvents |
| --- | --- |
| (3,4,5)12G1-PhA-(3,4,5) 3-G1-(NH3Cl)3 [104b] | poor solubility in common solvents |
| (3,4,5)12G1-BnA-(3,4,5)-3-G1-(NH3Cl)3 [compound 109] | poor solubility in common organic solvents |
| (3,4,5)4G1-PhA-(3,4,5)-3-G1-(NH3Cl)3 [104a] | poor solubility in common solvents |
